PubChem BioAssay AID2100 (National Center for Advancing Translational Sciences (NCATS), 2009)
The entries are a selection whose mix differs from that of the whole data set. Inconclusive results are not listed. Entries that show only a call come without a potency. The source made the active and inactive calls. The call rests on the fitted dose curve; in most records, active means well fitted inhibition curve with a large enough effect; inconclusive means small, poorly fitted or top-dose-only effect, or another doubt; inactive means no such curve, though single readings can be large or run the other way.

target: Lysosomal alpha-glucosidase (Homo sapiens) (UniProt P10253); experiment: qHTS Assay for Inhibitors and Activators of Human alpha-Glucosidase Cleavage of Glycogen; details: recombinant GAA, glycogen substrate, Amplex Red glucose oxidase fluorescence; series mostly up to 76.4 µM;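 further: the screen sought inhibitors and activators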
Excerpt: NIH Chemical Genomics Center [NCGC] NIH Molecular Libraries Probe Production Centers Network [MLPCN] MLPCN Grant: R03 MH084841-01 Assay Submitter (PI): Wei Zheng NCGC Assay Overview: Alpha-glucosidase is responsible for the hydrolysis of terminal, non-reducing 1,4-linked alpha-D-glucose residues, which releases alpha-D-glucose. It is a lysosomal hydrolase that is required for the degradation of a small percentage (1-3%) of cellular glycogen in humans. Deficiency of this enzyme results in glycogen-storage disease type II (GSDII), also referred to as Pompe disease, an autosomal recessive disorder. Structurally normal glycogen is accumulated in the lysosomes and cytoplasm in affected patients, primarily in muscle tissues. Excessive glycogen storage within lysosomes may interrupt normal functioning of other organelles and leads to cellular injury. In turn, this leads to enlargement and dysfunction of the entire organ involved (eg: cardiomyopathy and muscle weakness). It has been reported that the improper folding and trafficking of alpha-glucosidase resulting from genetic mutations may account for a significant number of Pompe patients. […] We optimized this alpha-glucosidase assay in 1536-well plate format for identification of novel small molecule inhibitors or activators with structures other than the sugar analogs in order to develop new pharmacological chaperones. Previous assays of alpha-Glucosidase have utilized a non-natural fluorescent substrate to probe enzyme activity. The present assay measures enzyme activity on glycogen using a coupled-assay system to glucose oxidase.
NCGC Assay Protocol Summary: This is an enzyme assay using glycogen from bovine liver (Sigma catalog #: G0885) as the substrate and recombinant human alpha-glucosidase as the enzyme preparation. Upon hydrolysis of the substrate, the glucose product can be detected using the Amplex Red Glucose Oxidase Assay Kit (Invitrogen catalog #: A22189). The product of this reaction can be read with a fluorescence plate reader with an excitation at 573 nm and an emission at 610 nm. Data were normalized to the controls for basal activity (without enzyme) and 100% activity (with enzyme). The AC50 values were determined from concentration-response data modeled with the standard Hill equation. Assay buffer for enzyme reaction: 50 mM citric acid (titrated with potassium phosphate to pH 5.0), 0.01% Tween-20 (pH 5.0 is an optimal condition for this enzyme assay) Assay buffer for Amplex Red reaction: Tris-HCl, pH 7.5 1536-well assay protocol for the alpha-glucosidase assay: (1) Add 2 ul/well alpha-glucosidase enzyme solution (4 nM final) (2) Add 23 nL compounds in DMSO solution. The final titration was 0.7 nM to 77 uM. (3) Add 1 ul of glycogen substrate solution (30 ug) (4) Incubate at 37 C for 40 min (5) Add 2 ul tris-HCl buffer with Amplex Red reagents (6) Incubate 45 min at room temperature. (7) Detect the assay plate in a ViewLux plate reader (PerkinElmer) with Ex=573 nm and Em=610nm. Keywords: Alpha-glucosidase, Pompe Disease, pharmacological chaperone, chaperone therapy, high throughput screening, alpha-glucosidase inhibitor, MLSMR, MLSCN, NIH Roadmap, qHTS and NCGC

Q: For `N#Cc1ccc(C(=O)NCC2(N3CCCCC3)CCCCC2)cc1`, which Potency is on record?
A: inactive

Q: For `O=C(NCC1(N2CCOCC2)CCCCC1)c1ccccc1[N+](=O)[O-]`, which Potency is on record?
A: inactive

Q: With `O=C(NCC1(N2CCOCC2)CCCCC1)c1ccc([N+](=O)[O-])cc1` as the molecule, how does the Potency read?
A: inactive

Q: How did the Potency turn out when `CC(C)(C)OC(=O)N1CCC(N(C(=O)c2ccccc2)c2ccc(Cl)cc2)CC1` was run?
A: inactive

Q: With `CCOC(=O)C(CC)C1=NC(C)(C)Cc2ccccc21.O=[N+]([O-])c1cc([N+](=O)[O-])c(O)c([N+](=O)[O-])c1` (configuration not stated) as the molecule, how does the Potency read?
A: inactive

Q: For `CN(C)C1(CNC(=O)c2cccc(C#N)c2)CCCCC1`, which Potency is on record?
A: inactive

Q: How did the Potency turn out when `O=C(NCC1(N2CCOCC2)CCCCC1)c1ccccc1` was run?
A: inactive

Q: For `CCCN1CCC(Nc2cc(OC)cc(OC)c2)CC1`, which Potency is on record?
A: inactive

Q: For `c1ccc(CN2CCC(Nc3ccccc3)CC2)cc1`, which Potency is on record?
A: inactive

Q: With `COc1ccc(C(=O)NCC2(N3CCOCC3)CCCCC2)cc1OC` as the molecule, how does the Potency read?
A: inactive

Q: How did the Potency turn out when `CCOC(=O)N1CCC(Nc2ccc(C)cc2)CC1` was run?
A: inactive

Q: Which Potency does the source give for `N/C(=N\O)c1c(N)no[n+]1[O-]` here?
A: inactive

Q: How did the Potency turn out when `O=C(O)c1cccc(Nc2c([N+](=O)[O-])cc([N+](=O)[O-])cc2[N+](=O)[O-])c1` was run?
A: inactive

Q: For `O=C(OC1CN2CCC1CC2)C1c2ccccc2C=Cc2ccccc21` (configuration not stated), which Potency is on record?
A: inactive

Q: `CN1CCC(Nc2ccc(F)c(Cl)c2)CC1` was tested. Which Potency did it give?
A: inactive

Q: `CCOc1ncccc1C(=O)NCC1(N2CCOCC2)CCCCC1` was tested. Which Potency did it give?
A: inactive

Q: Which Potency does the source give for `O=C(O)C1(Nc2ccccc2)CCN(Cc2ccccc2)CC1` here?
A: inactive

Q: How did the Potency turn out when `CC(C)(C)OC(=O)N1CCC(Nc2ccccc2)CC1` was run?
A: inactive

Q: Which Potency does the source give for `CCCOc1ccc(C(=O)NCC2(N(C)C)CCCCC2)cc1` here?
A: inactive

Q: `COc1cc(OC)cc(C(=O)NCC2(N3CCOCC3)CCCCC2)c1` was tested. Which Potency did it give?
A: inactive

Q: `COc1cc(C(=O)NCC2(N3CCOCC3)CCCCC2)cc(OC)c1OC` was tested. Which Potency did it give?
A: inactive

Q: How did the Potency turn out when `COc1cccc(C(=O)N(c2cc(C)cc(C)c2)C2CCN(C(=O)OC(C)(C)C)CC2)c1` was run?
A: inactive

Q: With `CCC(CO)(C(=O)OC1CN2CCC1CC2)c1ccccc1` (configuration not stated) as the molecule, how does the Potency read?
A: inactive

Q: For `CN1CCC(Nc2ccc(Cl)cc2)CC1`, which Potency is on record?
A: inactive

Q: Which Potency does the source give for `CCCOc1ccc(C)cc1CN(CCCl)CCCl` here?
A: inactive

Q: For `CN(C)C1(CNC(=O)c2ccc(C(C)(C)C)cc2)CCCCC1`, which Potency is on record?
A: inactive

Q: `COc1cc(OC)cc(C(=O)NCC2(N3CCCCC3)CCCCC2)c1` was tested. Which Potency did it give?
A: inactive

Q: For `Fc1ccccc1NC1CCN(Cc2ccccc2)CC1`, which Potency is on record?
A: inactive

Q: For `CCN1CCC(Nc2cccc(F)c2)CC1`, which Potency is on record?
A: inactive

Q: How did the Potency turn out when `Cc1ccccc1C(=O)NCC1(N(C)C)CCCCC1` was run?
A: inactive

Q: With `CN(C)c1ccc(C(=O)NCC2(N3CCCCC3)CCCCC2)cc1` as the molecule, how does the Potency read?
A: inactive

Q: With `CC(C)(C)c1ccc(C(=O)NCC2(N3CCOCC3)CCCCC2)cc1` as the molecule, how does the Potency read?
A: inactive
